From US10098904B2, “Zidovudine combination therapies for treating microbial infections” (HELPERBY THERAPEUTICS LIMITED, priority 2014, dated 2018)

Tests used:
[1] = tested on: NDM-1 Klebsiella pneumonia BAA2473; test: microbe, parasite or virus in culture; details: Klebsiella pneumoniae, BAA2473, 24 h
[2] = tested on: NDM-1 E. coli BAA2471; test: microbe, parasite or virus in culture; details: Escherichia coli, BAA2471, 24 h
[3] = tested on: NDM-1 Klebsiella pneumonia BAA2473
[4] = tested on: NDM-1 Klebsiella pneumonia BAA2472; test: microbe, parasite or virus in culture; details: Klebsiella pneumoniae, BAA2472, 24 h

Structure (SMILES): Cc1cn([C@H]2C[C@H](N=[N+]=[N-])[C@@H](CO)O2)c(=O)[nH]c1=O [HT0120663, Zidovudine]
- MIC [1]: 8 µg/mL (≈ 29.9 µM)
- MIC [2]: 8 µg/mL (≈ 29.9 µM)
- effect on synergy compared with rifampicin and colistin combination ([3]; HT0120663 at 2 μg/ml added): increased the effect of synergy by reduction of rifampicin MIC
- effect on synergy compared with rifampicin and colistin combination ([3]; HT0120663 at 4 μg/ml added): increased the effect of synergy by reduction of rifampicin MIC
- MIC [4]: 8 µg/mL (≈ 29.9 µM)

Structure (SMILES): CO[C@H]1/C=C/O[C@@]2(C)Oc3c(C)c(O)c4c(O)c(c(/C=N/N5CCN(C)CC5)c(O)c4c3C2=O)NC(=O)/C(C)=C\C=C\[C@H](C)[C@H](O)[C@@H](C)[C@@H](O)[C@@H](C)[C@H](OC(C)=O)[C@@H]1C [rifampicin, Rifampicin]
- MIC [2]: 4 µg/mL (≈ 4.86 µM)
- MIC [4]: 4 µg/mL (≈ 4.86 µM)

In brackets after ≈: the same amount, converted by molar mass. Where two headings read alike, the source gives them in different places.
